Test results taken from ChEMBL document CHEMBL1156930 (J Med Chem, 2010).

Species: Homo sapiens
Assay: Selectivity ratio of Ki for human GalR2 to Ki for human GalR1

Work on `CCCCCCCCCCCCCCCC(=O)NCCCC[C@H](NC(=O)[C@H](CCCCN)NC(=O)[C@H](CCCCN)NC(=O)[C@@H]1CCCN1C(=O)CNC(=O)[C@H](CC(C)C)NC(=O)[C@H](CC(C)C)NC(=O)[C@H](Cc1ccc(O)cc1)NC(=O)CNC(=O)[C@H](C)NC(=O)[C@H](CO)NC(=O)[C@H](CC(N)=O)NC(=O)[C@H](CC(C)C)NC(=O)[C@@H](NC(=O)[C@H](Cc1c[nH]c2ccccc12)NC)[C@@H](C)O)C(=O)N[C@@H](CCCCN)C(N)=O` (H-[NMeW]TLNSAGYLLGPKKK(Palmitoyl)K-NH2) yielded a Ratio Ki of 0.06.

Where a SMILES comes first, the peptide text is derived from it. [ ]: non-standard residue; d: D form. The star is where a group is joined. NMeW = CN[C@@H](Cc1c[nH]c2ccccc12)C(=O)O; Palmitoyl = CCCCCCCCCCCCCCCC(=O)*
